Like-named read-outs stand apart in the source and are kept apart here.
Test: Dissolution test: salts dissolved up to saturation, solubility determined by absorbance at 450 nm
Procedure: The disodium salt of PQQ obtained by the method as described in Example 1 was used.
These salts were dissolved up to saturation at room temperature of 23 to 28° C., and these solutions each were diluted by 20 times or 400 times with a phosphate buffer having a pH of 7.5. For the diluted solutions each, an analysis of the ultraviolet-visible absorption spectra was carried out using a HITACHI U-2000 spectrometer.

Molecule	Relative Ratio (solubility)	solubility of pyrroloquinoline, mmol/L	Relative Ratio (solubility) (Solvent Ethanol, relative to Disodium Salt of PQQ in water = 1)	Relative Ratio (solubility) (Solvent Water, relative to Disodium Salt of PQQ in water = 1)
2.4 Choline Salt of PQQ	≥ 21.5 or	≥ 171 or mmol/L		
C[N+](C)(C)CCO.C[N+](C)(C)CCO.C[N+](C)(C)CCO.O=C(O)c1cc(C(=O)O)c2c(n1)C(=O)C(=O)c1cc(C(=O)O)[nH]c1-2 [Tricholine Salt of PQQ]			≥ 21.5 or	≥ 21.5 or
